Patent US4900719A, “Nitrosothiols as hypotensive agents” (The Ohio State University, priority 1988, dated 1990)

Experiments:
[1] = stability of other nitrosothiols (qualitative statement); format: physicochemical
[2] = tested on: anesthetized dogs; experiment: arterial blood pressure after intravenous injection in anesthetized dogs (Examples 2 and 3); format: in vivo; conditions: intravenous injection in dextrose
Method: Fifty milligrams of SNP (Nipride, Roche Laboratories) was reconstituted in 250 ml of 5% dextrose in water. A GSNO solution was diluted as 50 ug/ml in 5% dextrose in water. Seven mongrel dogs (18.1-31.8 kg) and seven cynomologus monkeys (Macaca fascicularis; 4.4-9.0 kg) were used in the study. The animals were given a pre-anesthetic (monkeys--Ketamine HCl, 10 mg/kg I.M.; dogs--0.2 mg/kg fentanyl and 1 mg/kg droperidol, Innovar Vet I.V.) and anesthetized with a mixture of α-chloralose (50 mg/kg) and urethane (500 mg/kg) given as an intravenous injection. The left femoral artery and vein were cannulated with heparinized saline-filled catheters. Arterial pressure was obtained from the arterial catheter using an electromedics MS-20 solid state pressure transducer and recorded on a Gould 2400 chart recorder. Randomized venous infusions of GSNO (n=7) and SNP (n=5) were made using Harvard apparatus compact infusion pump model 976. The infusion was maintained until a new steady state value for mean arterial pressure had been obtained for each infusion rate. […]
By following in general the procedure described for GSNO in Example 1, animal experiments are performed on a plurality of anesthetized dogs with each intravenous injection of S-Nitrosocaptopril in dextrose as well as the arterial blood pressure of the dogs being recorded. […]

S-nitroso derivative of human serum albumin: S-nitroso derivative of human serum albumin, made by transnitrosation from S-nitroso-3-mercaptopropionic acid
stability (in words) [1]: quite stable | lowering of arterial blood pressure (in words) [2]: Significant lowering of arterial blood pressure
